{"sequences": {"note": "Sequences of proteins named here, by UniProt entry; tags and fusion partners are left off. A change or cut given only in a name is not applied to a line headed by its entry.", "UniProt Q13315": "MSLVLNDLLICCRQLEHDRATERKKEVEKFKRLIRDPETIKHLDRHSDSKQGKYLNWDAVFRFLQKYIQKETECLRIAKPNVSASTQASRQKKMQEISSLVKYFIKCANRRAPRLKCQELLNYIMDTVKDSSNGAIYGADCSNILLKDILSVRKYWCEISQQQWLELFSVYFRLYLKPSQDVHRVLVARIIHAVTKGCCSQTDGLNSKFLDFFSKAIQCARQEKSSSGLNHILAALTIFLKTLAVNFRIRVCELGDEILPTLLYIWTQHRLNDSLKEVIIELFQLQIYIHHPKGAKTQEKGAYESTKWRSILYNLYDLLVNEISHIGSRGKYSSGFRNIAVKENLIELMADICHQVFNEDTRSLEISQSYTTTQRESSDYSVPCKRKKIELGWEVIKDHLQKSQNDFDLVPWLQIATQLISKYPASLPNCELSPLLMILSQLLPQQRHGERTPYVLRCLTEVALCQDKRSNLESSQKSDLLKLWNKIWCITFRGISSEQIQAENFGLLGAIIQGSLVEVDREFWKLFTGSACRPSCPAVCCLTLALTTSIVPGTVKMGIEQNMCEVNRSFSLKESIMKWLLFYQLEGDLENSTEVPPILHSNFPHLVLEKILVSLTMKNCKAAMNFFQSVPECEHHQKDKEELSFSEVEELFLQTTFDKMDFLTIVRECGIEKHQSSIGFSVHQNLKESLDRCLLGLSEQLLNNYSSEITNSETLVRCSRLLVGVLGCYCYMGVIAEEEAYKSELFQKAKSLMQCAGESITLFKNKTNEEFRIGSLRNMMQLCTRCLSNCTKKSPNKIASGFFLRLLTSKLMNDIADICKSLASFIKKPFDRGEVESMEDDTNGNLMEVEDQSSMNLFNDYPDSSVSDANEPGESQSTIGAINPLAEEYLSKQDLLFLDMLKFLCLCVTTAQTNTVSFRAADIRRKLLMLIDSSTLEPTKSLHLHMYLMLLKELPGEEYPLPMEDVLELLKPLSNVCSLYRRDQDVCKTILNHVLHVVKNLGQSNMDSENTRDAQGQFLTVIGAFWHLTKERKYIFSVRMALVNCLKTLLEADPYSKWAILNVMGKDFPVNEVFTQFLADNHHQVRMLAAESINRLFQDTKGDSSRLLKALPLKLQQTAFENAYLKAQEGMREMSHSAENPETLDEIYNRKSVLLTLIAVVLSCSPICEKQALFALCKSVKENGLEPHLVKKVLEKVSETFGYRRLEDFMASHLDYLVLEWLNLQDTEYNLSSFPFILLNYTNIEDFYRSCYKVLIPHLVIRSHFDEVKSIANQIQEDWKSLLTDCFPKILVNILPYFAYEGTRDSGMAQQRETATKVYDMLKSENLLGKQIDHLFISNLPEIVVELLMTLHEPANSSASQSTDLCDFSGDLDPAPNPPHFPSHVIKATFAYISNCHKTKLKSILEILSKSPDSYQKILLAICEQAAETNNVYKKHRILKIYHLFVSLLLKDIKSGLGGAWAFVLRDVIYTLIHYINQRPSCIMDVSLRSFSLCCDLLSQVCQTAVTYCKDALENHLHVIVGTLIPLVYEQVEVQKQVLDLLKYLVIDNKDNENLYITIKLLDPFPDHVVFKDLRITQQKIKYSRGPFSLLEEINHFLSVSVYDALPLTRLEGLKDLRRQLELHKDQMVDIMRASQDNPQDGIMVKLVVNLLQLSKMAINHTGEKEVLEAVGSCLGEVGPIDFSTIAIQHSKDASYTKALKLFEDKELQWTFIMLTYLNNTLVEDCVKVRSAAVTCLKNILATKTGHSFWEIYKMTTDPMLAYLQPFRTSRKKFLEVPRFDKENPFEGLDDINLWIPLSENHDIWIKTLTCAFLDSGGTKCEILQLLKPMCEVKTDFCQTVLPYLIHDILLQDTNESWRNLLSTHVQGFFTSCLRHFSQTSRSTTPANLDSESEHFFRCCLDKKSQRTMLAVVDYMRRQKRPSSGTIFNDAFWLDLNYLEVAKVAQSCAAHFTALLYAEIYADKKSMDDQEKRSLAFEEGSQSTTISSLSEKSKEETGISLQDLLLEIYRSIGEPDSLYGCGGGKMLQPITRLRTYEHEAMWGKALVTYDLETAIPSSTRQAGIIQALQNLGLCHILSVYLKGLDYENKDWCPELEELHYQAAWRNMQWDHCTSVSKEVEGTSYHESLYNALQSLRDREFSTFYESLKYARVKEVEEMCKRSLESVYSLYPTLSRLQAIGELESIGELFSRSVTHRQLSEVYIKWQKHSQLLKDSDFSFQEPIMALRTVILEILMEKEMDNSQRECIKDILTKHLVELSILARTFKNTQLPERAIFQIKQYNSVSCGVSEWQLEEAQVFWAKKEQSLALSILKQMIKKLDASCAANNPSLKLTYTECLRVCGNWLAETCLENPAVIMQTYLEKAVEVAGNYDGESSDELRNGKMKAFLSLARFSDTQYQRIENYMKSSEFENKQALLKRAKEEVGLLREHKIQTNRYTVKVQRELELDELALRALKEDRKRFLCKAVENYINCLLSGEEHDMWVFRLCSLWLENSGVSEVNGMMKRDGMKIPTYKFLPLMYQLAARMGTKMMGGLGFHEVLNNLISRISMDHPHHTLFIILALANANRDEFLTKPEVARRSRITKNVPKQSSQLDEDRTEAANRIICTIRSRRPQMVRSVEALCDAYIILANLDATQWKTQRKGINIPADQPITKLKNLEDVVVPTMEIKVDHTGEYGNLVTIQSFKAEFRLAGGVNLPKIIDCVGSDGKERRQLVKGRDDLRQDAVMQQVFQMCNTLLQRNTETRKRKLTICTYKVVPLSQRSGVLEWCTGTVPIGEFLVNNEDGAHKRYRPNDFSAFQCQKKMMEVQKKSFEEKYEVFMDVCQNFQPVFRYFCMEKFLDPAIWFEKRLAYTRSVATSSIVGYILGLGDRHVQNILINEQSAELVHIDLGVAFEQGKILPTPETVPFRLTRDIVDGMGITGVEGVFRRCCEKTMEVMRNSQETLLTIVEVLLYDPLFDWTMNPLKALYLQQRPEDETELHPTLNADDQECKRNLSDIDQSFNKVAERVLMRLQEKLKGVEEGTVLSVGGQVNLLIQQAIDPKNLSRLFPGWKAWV"}, "source": "ChEMBL document CHEMBL4477207", "about": "“Discovery of Novel 3-Quinoline Carboxamides as Potent, Selective, and Orally Bioavailable Inhibitors of Ataxia Telangiectasia Mutated (ATM) Kinase” (J Med Chem, 2016)", "molecular_target": "Serine-protein kinase ATM (Homo sapiens, UniProt Q13315)", "test": "Inhibition of ATM phosphorylation at Ser-1981 residue in human HT-29 cells incubated for 1 hr followed by X-ray irradiation by Hoechst staining based fluorescence plate reader analysis", "assay_type": "cell-based"}
{"smiles": "COCc1ccc(-c2cc3c(N[C@@H](C)c4ccn(C)n4)c(C(N)=O)cnc3cc2F)c(F)n1", "values": [{"measurement": "IC50", "value": 73, "unit": "nM"}]}
